# Only some compounds are listed: those with a hit (about 1.2% of all), similar ones and a draw of the others.
# Rce1 inh: blocks yeast Ras-converting enzyme | Q03530 | yeast membranes, quenched prenylated peptide cleavage fluorescence | calls only | 0.27% of 290,000 active | AID 2563;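 active = fall in fluorescence gain of 50% or more versus controls, with final raw signal at or below 3038400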;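 note: plate controls were neutral control wells for no effect and wells lacking membranes for full effect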
# UUG fidelity: modulators of start codon recognition fidelity in yeast; AID 602363; activity score, % at 18.7 µM; S. cerevisiae UUG-firefly luciferase reporter, luminescence/redox ratio; 0.13% of 350,000 active;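 active = replicate mean at a twofold rise or more, about +100% in these data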;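 note: firefly luciferase made from a UUG start codon reports start codon fidelity; reporter light over untreated wells divided by growth signal over untreated wells; some hits fall short of that in this replicate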
# Arrestin-AP2 inh: blocks beta-arrestin peptide binding to AP2 adaptin. FITC-arrestin peptide / GST-AP2 beads, flow cytometry; AP2 beta2 appendage carries R879A mutation. inhibition, % at 10 µM. 0.31% of 340,000 active. AID 504490;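 active = inhibition above a set limit, near 3 SD of compounds lacking own fluorescence, cut at about 54% in these data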;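 note: plate controls were DMSO wells for no effect and 5 µM unlabelled arrestin peptide for full effect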
#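 test system = AP2 appendage R879A on GSH beads | buffer or medium = PBS plus Tween 20 (0.05%) and BSA (0.1%) | incubation = 12 min plus 1 h, RT | detection = bead flow cytometry, FITC channel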
# Pemphigus Ab inh: inhibitors of pemphigus antibody binding to human desmoglein-3; 0.48% of 310,000 active; binding (percent of control), % at 10 µM; DSG3-coupled beads, scFv-anti-DSG3-GFP binding, flow cytometry; stronger effect = lower value;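 active = binding more than 3 SD below its plate's average and above zero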;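 note: hits lower antibody fragment binding to DSG3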
# Tb MetRS inh: Trypanosoma brucei MetRS inhibition; purified T. brucei MetRS, ATP depletion, Kinase-Glo luminescence; inhibition, % at 11.9 µM; 0.4% of 360,000 active; AID 624268;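 active = inhibition above a per-plate cutoff of the control wells' mean inhibition plus 3 SD, cut at about 5.5% in these data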;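 note: 0% = DMSO wells median and 100% = median of wells with control inhibitor compound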
#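 Material: parasite MetRS enzyme / Replication: singlicate, one well per compound / Signal: luminescence of leftover ATP / Schedule: 2 h aminoacylation at 25 °C after 15 min preincubation / Medium: HEPES-MgCl2-KCl buffer plus DTT, spermine, BSA, pyrophosphatase / Doses: 11.9 µM single point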
# TbMetRS confirm: Trypanosoma brucei MetRS inhibition confirmed; shares compounds with Tb MetRS inh; T. brucei MetRS enzyme, luminescence (ATP depletion); inhibition, % at 11.9 µM; 93% of 1,400 active; in the data active = inhibition above about 7%
# Jurkat cytotox: kills Jurkat cells in T. brucei MetRS counterscreen; shares compounds with Tb MetRS inh; Jurkat cells viability, ATP luminescence; inhibition, % at 8.3 µM; 12% of 1,400 active; AID 624413; in the data active = inhibition above about 15%;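 note: 0% = vehicle and 100% = reference inhibitor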
# Tb MetRS inh FP: T. brucei MetRS inhibition, orthogonal assay. shares compounds with Tb MetRS inh. purified T. brucei MetRS, fluorescence polarization. inhibition, % at 11.9 µM. 44% of 1,400 active. AID 651607; in the data active = inhibition above about 17%;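 note: 0% = vehicle wells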
# The depositor's hits bear a star; i = inactive; nt = not tested or not shown.
SMILES,Rce1 inh,UUG fidelity,Arrestin-AP2 inh,Pemphigus Ab inh,Tb MetRS inh,TbMetRS confirm,Jurkat cytotox,Tb MetRS inh FP
COc1ccc(CN(C)C[C@@H]2Oc3ccc(NC(=O)Cn4cnnn4)cc3CC(=O)N([C@H](C)CO)C[C@@H]2C)cc1,nt,-1,nt,nt,nt,nt,nt,nt
CN(C)C(=O)C[C@@H]1CC[C@@H]2[C@H](COC[C@@H](O)CN2Cc2ccc(C(F)(F)F)cc2)O1,nt,-6,nt,nt,nt,nt,nt,nt
Cc1ncc([N+](=O)[O-])n1CC(=O)Nc1ccc(Br)cc1,i,-11,-2,100,6.1*,14*,-6,0
Cc1ccc(NC(=O)Cn2c([N+](=O)[O-])cnc2C)cc1,i,nt,-8,127,0,nt,nt,nt
O=C(CSc1nnc(CCc2nc3ccccc3[nH]2)n1-c1ccccc1)NCc1ccco1,i,13,28,nt,1,nt,nt,nt
O=C(CSc1nnc(CCc2nc3ccccc3[nH]2)n1-c1ccccc1)NCc1ccccc1,i,nt,-7,103,6.2*,9.2*,5,-2
S=C(NCc1cccs1)Nc1cc(Cl)cc(Cl)c1,i,nt,-22,nt,23*,31*,4,20*
O=C(Cc1cccs1)NCc1cc(Cl)cc(Cl)c1,i,-14,1,98,56*,73*,-2,44*
O=C(Cc1cccs1)NCc1cccc(Cl)c1,i,-11,7,101,2,nt,nt,nt
S=C(NCc1cccs1)Nc1cccc(Cl)c1,i,nt,36,100,2,nt,nt,nt
O=C(Nc1ccc(Cl)cc1)N(Cc1nc2ccccc2c(=O)[nH]1)Cc1cccs1,i,3,-1,100,9.8*,38*,3,19*
COc1ccc(CCNC(=O)c2cc(S(=O)(=O)N3CCCCC3)c[nH]2)cc1OC,i,-10,-1,112,1,nt,nt,nt

# 2 entries picked at random from those above:
SMILES,Rce1 inh,UUG fidelity,Arrestin-AP2 inh,Pemphigus Ab inh,Tb MetRS inh,TbMetRS confirm,Jurkat cytotox,Tb MetRS inh FP
O=C(Nc1ccc(Cl)cc1)N(Cc1nc2ccccc2c(=O)[nH]1)Cc1cccs1,i,3,-1,100,9.8*,38*,3,19*
O=C(Cc1cccs1)NCc1cc(Cl)cc(Cl)c1,i,-14,1,98,56*,73*,-2,44*

# (continued)
SMILES,Rce1 inh,UUG fidelity,Arrestin-AP2 inh,Pemphigus Ab inh,Tb MetRS inh,TbMetRS confirm,Jurkat cytotox,Tb MetRS inh FP
Cc1cccc(CCNC(=O)c2cc(S(=O)(=O)N3CCCCC3)c[nH]2)c1,i,-2,5,101,27*,46*,7,28*
C[C@@H]1CCCCO[C@@H](CN(C)C(=O)C2CCCCC2)[C@H](C)CN([C@@H](C)CO)C(=O)c2cc(NC(=O)Nc3ccccc3)ccc2O1,nt,13,nt,nt,nt,nt,nt,nt
CCc1nnc(N/N=C\c2ccc(OC(C)=O)c(OC)c2)n1N,i,-10,12,102,6.6*,4,4,4
CN(CC(=O)Nc1ccc(Cl)cc1)C(=O)CCNC(=O)c1ccc(Cl)cc1,nt,-17,23,97,3,nt,nt,nt
Cc1ccc(NC(=O)CN(C)C(=O)Cc2ccc(Cl)cc2Cl)cc1,i,-8,8,nt,54*,67*,-2,42*
Cc1ccc(C)c(NC(=O)CN(C)C(=O)Cc2ccc(Cl)cc2Cl)c1,i,1,19,101,-1,nt,nt,nt
CN(CC(=O)Nc1ccc(Cl)cc1)C(=O)CCc1ccccc1,i,-9,-2,106,20*,39*,-5,18*
CN(CC(=O)Nc1ccc(Cl)cc1)CC(=O)Nc1cccc(Br)c1,nt,9,-6,120,30*,49*,7,29*
COc1ccc(NC(=O)CN(C)CC(=O)Nc2cccc(C(C)=O)c2)cc1,i,-10,-2,113,1,nt,nt,nt
COc1ccc(NC(=O)CN(C)C(=O)CCCc2c[nH]c3ccccc23)cc1,i,nt,29,98,0,nt,nt,nt
CN(CC(=O)Nc1ccc(Cl)cc1)C(=O)CCc1c[nH]c2ccccc12,i,-1,1,102,34*,55*,0,23*
C[C@H](CO)N1C[C@H](C)[C@@H](CN(C)S(=O)(=O)c2ccc(Cl)cc2)Oc2c(NS(=O)(=O)c3ccc(Cl)cc3)cccc2C1=O,nt,4,nt,nt,nt,nt,nt,nt
CN(CCC(=O)Nc1ccc(Cl)cc1)Cc1ccccc1,i,-7,-5,118,14*,31*,8,15
O=C(Cn1c2[n+](c3ccc(C(F)(F)F)cc31)CCCCC2)Nc1ccccc1,i,nt,-65,108,28*,35*,-6,17
CCc1cccc(NC(=O)Cn2c3[n+](c4ccc(C(F)(F)F)cc42)CCCCC3)c1,i,nt,7,93,0,nt,nt,nt
CN(C)CCCCOc1ccc(Br)cc1Cl,i,nt,-6,102,8.0*,21*,7,11
CC1CCCN(CCCOc2ccc(Br)cc2Cl)C1 (stereo not given),i,nt,13,107,17*,30*,23*,11
C[C@@H]1CN([C@H](C)CO)C(=O)c2cc(NS(=O)(=O)c3ccc(Cl)cc3)ccc2O[C@@H]1CN(C)Cc1ccc(C(=O)Nc2ccccc2N)cc1,nt,-2,nt,nt,nt,nt,nt,nt
O=c1c2cc(Cl)ccc2[nH]c(=S)n1Cc1ccccn1,i,nt,-1,106,6.8*,16*,6,3
O=C(NCc1ccccn1)c1ccc(Cn2c(=S)[nH]c3ccc(Br)cc3c2=O)cc1,i,nt,0,109,0,nt,nt,nt
O=C1CC(c2ccccc2)CC2=C1C(c1ccccn1)Nc1ccccc1N2 (stereo not given),i,-15,8,107,-1,nt,nt,nt
O=C1CC(c2ccc(F)cc2)CC2=C1C(c1ccc([N+](=O)[O-])o1)Nc1ccccc1N2 (stereo not given),i,0,18,101,6.9*,1,3,1
CN(C)c1ccc(-c2[nH][nH]c(=O)c2NC(=O)c2ccc3ccccc3n2)cc1,nt,-11,nt,nt,13*,1,6,2
CN(C)c1ccc(-c2[nH][nH]c(=O)c2NC(=O)c2ccccn2)cc1,nt,-33,nt,nt,28*,1,9,4

# Compound profiles, as listed above. Screens in order: Rce1 inh	UUG fidelity	Arrestin-AP2 inh	Pemphigus Ab inh	Tb MetRS inh	TbMetRS confirm	Jurkat cytotox	Tb MetRS inh FP
# `O=C(NCc1ccccn1)c1ccc(Cn2c(=S)[nH]c3ccc(Br)cc3c2=O)cc1` as listed: i	nt	0	109	0	nt	nt	nt
# `CN(C)c1ccc(-c2[nH][nH]c(=O)c2NC(=O)c2ccc3ccccc3n2)cc1` as listed: nt	-11	nt	nt	13*	1	6	2
# `C[C@@H]1CN([C@H](C)CO)C(=O)c2cc(NS(=O)(=O)c3ccc(Cl)cc3)ccc2O[C@@H]1CN(C)Cc1ccc(C(=O)Nc2ccccc2N)cc1` as listed: nt	-2	nt	nt	nt	nt	nt	nt

# Other structures
SMILES,Rce1 inh,UUG fidelity,Arrestin-AP2 inh,Pemphigus Ab inh,Tb MetRS inh,TbMetRS confirm,Jurkat cytotox,Tb MetRS inh FP
CS(=O)(=O)N(CC(=O)Nc1ccc2c(c1)OCO2)Cc1ccc(Cl)cc1,i,-13,-1,nt,14*,23*,3,8
C[C@H](O)[C@@H]1CN2CCc3c([nH]c4ccccc34)[C@@H]2C[C@@H]1N(C)C(=S)NCCc1ccccc1,nt,-11,nt,nt,7.8*,6.7*,6,11
COc1cc(NC(=O)CCN2CC(C)OC(C)C2)cc(OC)c1 (stereo not given),i,-6,-2,97,5.8*,0,2,3
COc1ccc(NC(=O)N(C)C[C@@H]2Oc3ccc(NC(=O)Cc4ccccc4)cc3C(=O)N([C@H](C)CO)C[C@@H]2C)cc1,nt,1,nt,nt,nt,nt,nt,nt
C[C@H]1CN([C@@H](C)CO)C(=O)c2cccc(NC(=O)c3ccncc3)c2O[C@H]1CN(C)S(=O)(=O)c1cccs1,nt,-7,nt,nt,nt,nt,nt,nt
O=C1CCCC(=NNC(=O)c2cc3ccccc3cc2O)C1,nt,nt,-10,94,5.9*,24*,1,14
COc1ccc(/C=C(/NC(=O)c2ccc(OC)cc2)C(=O)NCCc2c[nH]c3ccccc23)cc1,i,nt,26,95,0,nt,nt,nt
